{"source": "patent US20240165096A1", "about": "“Anti Viral Therapy” (priority 2021, published 2024)", "system": "IFNλ", "note": "Counter-ions that a name gives are not always drawn.", "data": [{"compound": "O=C(O)COCCN1CCN([C@H](c2ccccc2)c2ccc(Cl)cc2)CC1", "note": "[Levocetirizine Dihydrochloride]", "values": [{"measurement": "enhancement of cytotoxicity", "result": "~1.5", "unit": "fold"}]}]}
